Test results taken from PubChem BioAssay (Tox21).
The list shows a part of the results, in another mix than the full data. Results filed as inconclusive are left out. The source made the active and inactive calls. Unless noted, calls follow the shape of the dose curve; as a rule, active = well fitted curve in the direction sought with a large enough effect in the repeat runs; inconclusive = weak or mixed curves; inactive = no such curve, though single readings can be large; an effect the other way counts as inactive or inconclusive.

Sequences of proteins named here, by UniProt entry; tags and fusion partners are left off. A change or cut given only in a name is not applied to a line headed by its entry.
UniProt Q96RI1: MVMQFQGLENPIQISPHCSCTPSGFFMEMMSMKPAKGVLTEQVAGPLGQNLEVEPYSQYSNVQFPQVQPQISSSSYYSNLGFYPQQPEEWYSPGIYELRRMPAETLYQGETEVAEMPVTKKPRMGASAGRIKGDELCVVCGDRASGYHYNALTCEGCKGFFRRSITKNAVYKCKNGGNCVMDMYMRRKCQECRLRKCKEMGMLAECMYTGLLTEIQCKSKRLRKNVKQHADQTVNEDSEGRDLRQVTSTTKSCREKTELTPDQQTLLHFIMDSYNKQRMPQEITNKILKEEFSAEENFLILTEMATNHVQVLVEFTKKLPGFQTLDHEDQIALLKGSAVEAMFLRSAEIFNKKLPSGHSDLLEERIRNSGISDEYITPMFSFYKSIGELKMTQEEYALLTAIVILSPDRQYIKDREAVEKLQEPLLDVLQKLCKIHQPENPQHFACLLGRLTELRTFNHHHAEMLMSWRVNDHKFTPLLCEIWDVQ
UniProt P19793: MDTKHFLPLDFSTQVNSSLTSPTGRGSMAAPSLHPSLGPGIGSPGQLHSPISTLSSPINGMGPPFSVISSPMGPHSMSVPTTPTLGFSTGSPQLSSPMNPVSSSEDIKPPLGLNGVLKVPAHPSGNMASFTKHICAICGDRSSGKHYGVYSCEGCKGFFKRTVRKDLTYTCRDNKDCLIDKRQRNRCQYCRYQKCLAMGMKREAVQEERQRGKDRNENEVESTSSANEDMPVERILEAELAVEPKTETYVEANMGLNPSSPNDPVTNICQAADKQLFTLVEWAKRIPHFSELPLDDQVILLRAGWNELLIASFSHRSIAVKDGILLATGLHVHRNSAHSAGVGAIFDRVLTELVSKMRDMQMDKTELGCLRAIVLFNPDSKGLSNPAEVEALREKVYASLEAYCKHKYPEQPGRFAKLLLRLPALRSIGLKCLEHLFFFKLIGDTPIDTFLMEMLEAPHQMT
UniProt Q03181: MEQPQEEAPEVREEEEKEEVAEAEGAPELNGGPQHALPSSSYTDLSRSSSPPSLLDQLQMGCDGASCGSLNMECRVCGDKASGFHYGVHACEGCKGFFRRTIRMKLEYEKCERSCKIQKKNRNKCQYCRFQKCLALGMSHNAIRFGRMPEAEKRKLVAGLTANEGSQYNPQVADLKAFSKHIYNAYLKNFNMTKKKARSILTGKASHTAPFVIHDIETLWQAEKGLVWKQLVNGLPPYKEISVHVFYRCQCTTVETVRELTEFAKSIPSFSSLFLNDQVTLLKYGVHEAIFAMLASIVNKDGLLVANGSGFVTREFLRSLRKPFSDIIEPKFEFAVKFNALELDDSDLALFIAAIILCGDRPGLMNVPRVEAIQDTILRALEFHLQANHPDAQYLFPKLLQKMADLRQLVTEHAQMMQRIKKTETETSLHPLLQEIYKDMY

How the values were obtained:
[1] = qHTS assay to identify small molecule antagonists of the peroxisome proliferator-activated receptor delta (PPARd) signaling pathway - cell viability counter screen (AID 743213); also: % is scaled to controls: 0 for no effect and ±100 for the full control effect; nearly all actives have a fitted effect of over 50% in size
Method in brief: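 Cytotoxicity counter screen: CellTiter-Glo luminescence read 30 min after addition, in the same wells as the reporter assay. There, PPARd UAS-bla HEK293H cells (3000/well) were treated 17 h at 37 C with compound and 300 nM L165041.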

[2] = qHTS assay to identify small molecule antagonists of the farnesoid-X-receptor (FXR) signaling pathway - cell viability counter screen (AID 743221; active = well fitted cell-killing curve with a large enough effect in the repeat runs, not every such curve was filed as active; also: % is scaled to controls: 0 for no effect and ±100 for the full control effect; nearly all actives have a fitted effect of over 50% in size)
[3] = qHTS assay to identify small molecule antagonists of the vitamin D receptor (VDR) signaling pathway - cell viability counter screen (AID 743225); also: % is scaled to controls: 0 for no effect and ±100 for the full control effect; nearly all actives have a fitted effect of over 50% in size
Method in brief: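 Cells (VDR-UAS-bla HEK 293T) are plated, rested 4 h at 37C, dosed with compound and 3 nM final 1-alpha,25-dihydroxy vitamin D3, and incubated 16 h. Viability is taken from CellTiter-Glo luminescence in the reporter wells.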

[4] = qHTS assay to identify small molecule agonists of the NFkB signaling pathway - cell viability counter screen (AID 1159515; calls by dose curve; also: % is scaled to controls: 0 for no effect and ±100 for the full control effect; nearly all actives have a fitted effect of over 55% in size); conditions: NFkB-bla ME-180 viability, CellTiter-Glo luminescence, 5 h; at 61 µM (top of the series) unless noted
Method in brief: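 5 hr compound treatment of NFkB-bla ME-180 cells (2,000/well, seeded overnight beforehand), followed by reporter substrate for 1.5 hr. CellTiter-Glo added afterward; luminescence after 30 min RT.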

[5] = qHTS assay to identify small molecule agonists of the endoplasmic reticulum stress response signaling pathway (AID 1159516; active = well fitted activation curve with a large enough effect in the signal ratio in the repeat runs, not every such curve was filed as active; the % refers to the signal ratio; also: % is scaled to controls: 0 for no effect and ±100 for the full control effect); conditions: ESRE-bla HeLa, ER stress beta-lactamase reporter, 5 h; at 61 µM (top of the series) unless noted
Method in brief: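 Reporter HeLa cells (ESRE-beta-lactamase) underwent 5 hr compound incubation at 37 C and 5% CO2 in quantitative HTS format. Detection followed 2 hr of FRET substrate loading at room temperature.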

[6] = qHTS assay to identify small molecule agonists of the AP-1 signaling pathway - cell viability counter screen (AID 1159525; calls by dose curve; also: nearly all actives have a fitted effect of over 55% in size); conditions: ME-180 AP-1-bla cells viability, ATP luminescence, 5 h; at 76.8 µM (top of the series) unless noted
Method in brief: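 Luminescent ATP readout (Cell Titer Glo, 30 min RT), normalised to DMSO and tetra n-octyl ammonium bromide controls. Cells were ME-180 AP-1-bla in 0.5% dialyzed FBS Opti-MEM, with a 5 h, 37 °C compound exposure.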

[7] = qHTS assay to identify small molecule agonists of the AP-1 signaling pathway (AID 1159526; calls by dose curve; also: % is scaled to controls: 0 for no effect and ±100 for the full control effect); conditions: ME-180 (cervical carcinoma) AP-1-bla reporter, beta-lactamase FRET ratio, 5 h; at 76.8 µM (top of the series) unless noted
[8] = qHTS assay to identify small molecule agonists of the RXR signaling pathway - cell viability counter screen (AID 1159529); also: % is scaled to controls: 0 for no effect and ±100 for the full control effect; nearly all actives have a fitted effect of over 50% in size
Method in brief: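 Cell viability is measured by CellTiter-Glo luminescence, 30 min at room temperature, in wells already read for beta-lactamase. Engineered HEK 293T cells (RXR-alpha-UAS-bla) are dosed 16 hr at 37 C. Tetraoctyl ammonium bromide serves as positive control.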

[9] = qHTS assay to identify small molecule antagonists of the retinoid acid receptor (RAR) signaling pathway - cell viability counter screen (AID 1159551); conditions: C3RL4 cells viability, ATP luminescence (CellTiter-Glo), 6 h; at 92.4 µM (top of the series) unless noted; also: % is scaled to controls: 0 for no effect and ±100 for the full control effect; nearly all actives have a fitted effect of over 35% in size
Method in brief: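 Seed C3RL4 cells; next day add compound, then retinol to 1 uM final; incubate 6 h at 37 C; add CellTiter-Glo; read luminescence after 30 min at RT.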

[10] = qHTS assay to identify small molecule antagonists of the estrogen related receptor (ERR) signaling pathway - cell viability counter screen (AID 1224818);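 also: viability measured after 17.5 h of compound exposure; % is scaled to controls: 0 for no effect and ±100 for the full control effect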
Method in brief: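 In the same ERR cell assay, compound-treated wells (17.5 h, 37 C) were multiplexed with a fluorogenic viability reagent, CellTiter-Fluor, read after 30 min to flag cytotoxic substances.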

[11] = qHTS assay to identify small molecule antagonists of the estrogen related receptor (ERR) signaling pathway (AID 1224819)
Method in brief: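 qHTS in ERR cells, 2,000/well, 1536 format. Cpd (DMSO) added after 6 h settle, 18 h 37 C. One-Glo luminescence, 30 min RT.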

[12] = qHTS assay to identify small molecule agonists of the estrogen related receptor (ERR) signaling pathway (AID 1224820); conditions: ERR reporter cell line, luciferase agonist mode; at 46.1 µM (top of the series) unless noted; also: % is scaled to controls: 0 for no effect and ±100 for the full control effect
Method in brief: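 ERR reporter cells (NTP line) plated 2,000/well, incubated 6 h at 37 C/5% CO2, then pinned with compounds in DMSO and held 18 h at 37 C. One-Glo added; luminescence read after 30 min at room temperature.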

[13] = qHTS assay to identify small molecule antagonists of the estrogen related receptor signaling pathway with the pleiotropic PPARgamma coactivator (PGC) cell viability counter screen (AID 1224822; also: % is scaled to controls: 0 for no effect and ±100 for the full control effect)
Method in brief: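 Compounds in DMSO, with positive and negative controls, were applied to PGC/ERR cells (2,000/well) and left 17.5 h at 37 C before CellTiter-Fluor detection.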

[14] = biological target: Bile acid receptor (Homo sapiens) (UniProt Q96RI1); assay: qHTS assay to identify small molecule antagonists of the farnesoid-X-receptor (FXR) signaling pathway (AID 743217; active = well fitted inhibition curve with a large enough effect in the signal ratio in the repeat runs, not every such curve was filed as active; the % refers to the signal ratio; also: % is scaled to controls: 0 for no effect and ±100 for the full control effect); conditions: HEK293T FXR-UAS-bla, beta-lactamase ratio, CDCA-stimulated, 16 h; at 62.6 µM (top of the series) unless noted
Method in brief: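 In this cell-based antagonist screen, inhibition of CDCA-driven (50 uM final) UAS-beta-lactamase expression in HEK 293T cells was measured by FRET fluorescence following 16 h compound exposure at 37 °C.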

[15] = qHTS assay to identify small molecule agonists of the farnesoid-X-receptor (FXR) signaling pathway - cell viability counter screen (AID 743218); also: % is scaled to controls: 0 for no effect and ±100 for the full control effect; nearly all actives have a fitted effect of over 45% in size
Method in brief: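 After 16 h at 37 C with test compounds, FXR-bla HEK 293T cells were given LiveBLAzer B/G substrate for 2 h at RT and then CellTiter-Glo; luminescence was taken after 30 min.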

[16] = biological target: Bile acid receptor (Homo sapiens) (UniProt Q96RI1); assay: qHTS assay to identify small molecule agonists of the farnesoid-X-receptor (FXR) signaling pathway (AID 743220; active = well fitted activation curve with a large enough effect in the signal ratio in the repeat runs, not every such curve was filed as active; the % refers to the signal ratio; also: % is scaled to controls: 0 for no effect and ±100 for the full control effect); conditions: HEK293T FXR-UAS-bla, beta-lactamase FRET ratio, 16 h
[17] = qHTS assay to identify small molecule agonists of the retinoic acid receptor (RAR) signaling pathway (AID 1159553); conditions: C3RL4 RARE luciferase reporter, agonist, 6 h; at 73.3 µM (top of the series) unless noted; also: % is scaled to controls: 0 for no effect and ±100 for the full control effect
Method in brief: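 Activation of retinol signaling was monitored via a RARE luciferase reporter in C3RL4 cells. After 6 hr compound treatment at 37 C, detection reagent was added for 30 min at room temperature before luminescence reading.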

[18] = biological target: Nuclear receptor ROR-gamma (Homo sapiens) (UniProt P51449); assay: qHTS assay to identify small molecule antagonists of the retinoid-related orphan receptor gamma (ROR-gamma) signaling pathway (AID 1159521); conditions: Tet-on RORgamma CHO cells, RORE-luciferase, 16 h; at 92.4 µM (top of the series)
[19] = biological target: Retinoic acid receptor RXR-alpha (Homo sapiens) (UniProt P19793); assay: qHTS assay to identify small molecule agonists of the RXR signaling pathway (AID 1159527; calls by dose curve; also: % is scaled to controls: 0 for no effect and ±100 for the full control effect; nearly all actives have a fitted effect of over 35% in size); conditions: HEK293T RXRa-UAS-bla, beta-lactamase ratio, 16 h; at 76.8 µM (top of the series)
[20] = biological target: Peroxisome proliferator-activated receptor delta (Homo sapiens) (UniProt Q03181); assay: qHTS assay to identify small molecule antagonists of the peroxisome proliferator-activated receptor delta (PPARd) signaling pathway (AID 743215; active = well fitted inhibition curve with a large enough effect in the signal ratio in the repeat runs, not every such curve was filed as active; the % refers to the signal ratio); conditions: HEK293H PPARd-UAS-bla, beta-lactamase FRET ratio, antagonist, 17 h; at 62 µM (top of the series)
Method in brief: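 With L165041 present at 300 nM final, compounds were incubated 17 h at 37 C on PPARd UAS-bla HEK293H cells. A FRET-based beta-lactamase substrate was then applied for 2 h at room temperature and fluorescence intensity recorded.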

Cc1cc([N+](=O)[O-])c(O)c([N+](=O)[O-])c1
inactive: Potency [1] | Potency [2] | Potency [3] | activity, negative = cytotoxic [4] -3.52% [at 78.8 µM] | activation [5] -3.82% [at 78.8 µM] | viability change, negative = cytotoxic [6] -8.77% | activation [7] 3.01% | Potency [8] | activity change, negative = cytotoxicity [9] 1.93%

CN(C(=O)Cc1ccc(Cl)c(Cl)c1)[C@@H]1CCCC[C@@H]1N1CCCC1
inactive: Potency [10] | Potency [11] | activation [12] 4.07% | Potency [13]

CN(C(=O)Cc1cccc2occc12)[C@H]1CC[C@@]2(CCCO2)C[C@@H]1N1CCCC1
inactive: Potency [1] | activity change, negative = inhibition [14] -1.56% | Potency [15] | activation ([16]; at 62.6 µM (top of the series)) -0.0904% | Potency [2] | Potency [3] | activity, negative = cytotoxic [4] -3.59% | activation [5] 3.7% | viability change, negative = cytotoxic [6] 6.87% | activation [7] 0.903% | Potency [8] | activity change, negative = cytotoxicity [9] -3.71% | activation [17] 1.64%

CCNC(C)Cc1ccc2c(c1)OCO2 (centres undefined)
inactive: Potency [1] | activity change, negative = inhibition [14] -17.5% [at 81.1 µM] | Potency [15] | activation ([16]; at 81.1 µM (top of the series)) -0.0457% | Potency [2] | Potency [3] | activity, negative = cytotoxic [4] -2.91% [at 78.8 µM] | activation [5] 7.04% [at 78.8 µM] | activity change, negative = inhibition [18] -22.8% | viability change, negative = cytotoxic [6] 1.55% | activation [19] 5.42% | Potency [8] | activity change, negative = cytotoxicity [9] -1.06%

CCCCC(CC)CO[P+](=O)OCC(CC)CCCC (centres undefined)
inactive: Potency [1] | ratio activity, negative = inhibition [20] -0.628% | Potency [15] | Potency [2] | Potency [3] | activity, negative = cytotoxic [4] -1.13% | activity change, negative = inhibition [18] -4.36% | viability change, negative = cytotoxic [6] -0.259% | activation [7] -3.45% | activation [19] -7.85% | Potency [8] | activity change, negative = cytotoxicity [9] 1.98% | activation [17] -0.308%

O=P(Cl)(Oc1ccccc1)Oc1ccccc1
inactive: Potency [1] | ratio activity, negative = inhibition [20] 11.5% | Potency [15] | Potency [2] | Potency [3] | activity, negative = cytotoxic [4] -0.555% | activation [5] -0.149% | activity change, negative = inhibition [18] -17.2% | viability change, negative = cytotoxic [6] 0.073% | activation [7] 0.753% | Potency [8] | activity change, negative = cytotoxicity [9] -0.67%
